Key:
BSC-1 cells = assay: MTS cell-viability assay, BSC-1; type: cell-based, monkey; settings: BSC-1, 200 μM
HeLa cells = assay: MTS cell-viability assay, HeLa; type: cell-based, human

For “Cyclosporine A [CsA, reference compound]”, the “percentage cell viability at 200 μM” value (BSC-1 cells) was 62.4 ± 0.4% and the “percentage cell viability at 100 μM” value (HeLa cells) was 82 ± 5%.
